From patent US12110276B2 (Genentech, Inc., priority 2021, dated 2024)

Chains of the proteins cited; added tags and fusions are not shown.
UniProt P28347, whole entry, species assumed: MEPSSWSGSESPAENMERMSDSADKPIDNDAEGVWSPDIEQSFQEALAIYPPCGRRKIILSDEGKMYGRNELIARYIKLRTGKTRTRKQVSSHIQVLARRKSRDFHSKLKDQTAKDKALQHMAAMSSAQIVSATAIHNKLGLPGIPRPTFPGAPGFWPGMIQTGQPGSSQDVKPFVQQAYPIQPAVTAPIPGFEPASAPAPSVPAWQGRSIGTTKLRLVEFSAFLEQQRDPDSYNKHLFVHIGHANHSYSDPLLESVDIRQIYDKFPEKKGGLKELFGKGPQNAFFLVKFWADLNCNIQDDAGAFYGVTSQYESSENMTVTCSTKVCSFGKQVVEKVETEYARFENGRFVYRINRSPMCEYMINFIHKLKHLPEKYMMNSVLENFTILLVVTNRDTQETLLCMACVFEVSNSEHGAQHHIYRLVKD
UniProt Q99594, whole entry, species assumed: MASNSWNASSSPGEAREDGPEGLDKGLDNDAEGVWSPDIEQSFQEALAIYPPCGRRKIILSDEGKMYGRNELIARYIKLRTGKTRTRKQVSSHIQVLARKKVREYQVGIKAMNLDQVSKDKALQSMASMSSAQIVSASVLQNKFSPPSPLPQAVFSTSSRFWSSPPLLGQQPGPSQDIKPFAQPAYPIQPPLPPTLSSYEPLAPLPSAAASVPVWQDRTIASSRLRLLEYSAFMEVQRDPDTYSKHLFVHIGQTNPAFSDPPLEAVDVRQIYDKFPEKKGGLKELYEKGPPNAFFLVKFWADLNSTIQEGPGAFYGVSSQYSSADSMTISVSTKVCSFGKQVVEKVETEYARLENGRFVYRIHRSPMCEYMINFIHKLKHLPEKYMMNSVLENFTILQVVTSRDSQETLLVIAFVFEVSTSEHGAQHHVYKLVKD
UniProt Q15562, whole entry, species assumed: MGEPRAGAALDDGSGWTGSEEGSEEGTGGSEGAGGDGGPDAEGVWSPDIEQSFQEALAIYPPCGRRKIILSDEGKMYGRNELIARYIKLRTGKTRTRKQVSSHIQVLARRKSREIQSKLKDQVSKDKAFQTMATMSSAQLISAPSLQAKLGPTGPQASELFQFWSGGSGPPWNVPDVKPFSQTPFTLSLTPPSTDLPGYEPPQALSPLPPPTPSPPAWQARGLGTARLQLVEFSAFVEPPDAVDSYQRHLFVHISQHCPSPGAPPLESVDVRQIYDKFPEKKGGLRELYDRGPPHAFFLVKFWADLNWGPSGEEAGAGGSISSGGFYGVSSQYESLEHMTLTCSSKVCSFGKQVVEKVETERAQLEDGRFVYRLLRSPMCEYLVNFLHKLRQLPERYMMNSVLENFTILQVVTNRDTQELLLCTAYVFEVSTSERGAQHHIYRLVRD

Key:
TEAD1 = TEAD1 (Homo sapiens (Human), UniProt P28347); assay: TR-FRET lipid pocket probe competition assay (Lipid HTRF), TEAD1; format: binding; conditions: 4 hours pre-incubation;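 note: His-tagged TEAD1 with biotinylated probe, detected via Europium anti-His and XL665 streptavidin, probe displacement lowers TR-FRET signal, IC50 from four-parameter nonlinear fit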
TEAD3 = TEAD3 (Homo sapiens (Human), UniProt Q99594); assay: TR-FRET lipid pocket probe competition assay (Lipid HTRF), TEAD3; format: binding; conditions: 4 hours pre-incubation
TEAD2 = TEAD2 (Homo sapiens (Human), UniProt Q15562);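 note: TR-FRET competition assay with His-tagged TEAD protein and a biotinylated lipid pocket probe, compound pre-incubated 30 min or 4 h at room temperature, displacement lowers signal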

Q: With `C/C=C/C(=O)NCc1nn(-c2ccc(OC(F)(F)F)cc2)c2nccc(CO)c12` [Compound 61, (E)-N-((4-(Hydroxymethyl)-1-(4-(trifluoromethoxy)phenyl)-1H-pyrazolo[3,4-b]pyridin-3-yl)methyl)but-2-enamide] as the compound, how does the IC50 (TEAD1) read?
A: Its IC50 is 900 nM.

Q: Which IC50 (TEAD3) does the source give for `C=CC(=O)N1CC(c2nn(-c3ccc(OC(F)(F)F)cc3)c3nccc(CO)c23)C1` [Compound 112, 1-(3-(4-(Hydroxymethyl)-1-(4-(trifluoromethoxy)phenyl)-1H-pyrazolo[3,4-b]pyridin-3-yl)azetidin-1-yl)prop-2-en-1-one] here?
A: The IC50 was 8.9 nM.

Q: With `C=C(F)C(=O)N1CC(c2nn(-c3ccc(S(F)(F)(F)(F)F)cc3)c3nccc([C@@H](O)CO)c23)C1` [Compound 60, (R)-1-(3-(4-(1,2-dihydroxyethyl)-1-(4-(pentafluoro-16-sulfanyl)phenyl)-1H-pyrazolo[3,4-b]pyridin-3-yl)azetidin-1-yl)-2-fluoroprop-2-en-1-one] as the compound, how does the IC50 (TEAD2) read?
A: Its IC50 is 8 nM.
